Measurements as given in patent US20090156471A1, “Use of anti-amyloid agents for treating and typing pathogen infections” (RAMOT AT TEL AVIV UNIVERSITY LTD., priority 2005, published 2009).

Test: TEM analysis of peptide self-assembly into fibrillar structures
Assay type: physicochemical
Conditions: FIG. 1c
Experimental: TEM analysis—In all examined cases, peptides were dissolved in water to a concentration of 10 to 50 mg/ml and incubated at room-temperature (RT). Fresh stocks were prepared for each and every experiment. […] Following 1 minute, excess fluid was removed, and the grid was then negatively stained with 10 μl of 2% uranyl-acetate in water. Following 2 minutes, excess fluid was removed from the grid. Samples were viewed in JEOL 1200 EX transmission electron microscope. In the experiments shown, 50 mg/ml peptides were used and micrographs were taken following 1 week. Bar represents 100 nm.

**Q.** With GQNHGG as the substance, how does the “aggregation potential (amount of aggregates) of scrambled QHGGGN sequences” value read?
**A.** highly aggregative and much more abundant
